“And” between values parts separate entries of the source, which are not always exact repeats. Identical values can stand only once. This is a selection; strong and weak results do not stand in their true shares. Some of these compounds have results that are not shown, active ones among them. Records with an inconclusive call do not appear. The source made the active and inactive calls. The call rests on the fitted dose curve; in most records, active means well fitted inhibition curve with a large enough effect; inconclusive means small, poorly fitted or top-dose-only effect; inactive means no such curve, though single readings can be large or run the other way.
target: Chromobox protein homolog 1 (Homo sapiens) (UniProt P83916); experiment: HTS for Inhibitors of HP1-beta Chromodomain Interactions with Methylated Histone Tails; conditions: AlphaScreen HP1-beta / biotin-H3K9me3 peptide binding; at 114 µM (top of the series); further: nearly all actives have a fitted effect of over 70% in size

Protein sequences, listed by entry. Tags and fused reporters are not part of them.
UniProt P83916, whole entry: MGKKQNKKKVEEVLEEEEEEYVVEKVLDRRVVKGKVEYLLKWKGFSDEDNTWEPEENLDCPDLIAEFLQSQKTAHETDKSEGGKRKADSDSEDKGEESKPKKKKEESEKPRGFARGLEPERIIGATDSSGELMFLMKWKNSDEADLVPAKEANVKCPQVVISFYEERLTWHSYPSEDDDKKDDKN

| SMILES | activity change, negative = inhibition |
| --- | --- |
| CN(C)C1(CNC(=O)c2ccc(Br)cc2)CCCCC1 | inactive: -0.237% |
| COc1cc(C(=O)NCC2(N(C)C)CCCCC2)c([N+](=O)[O-])cc1OC | inactive: 16.2% |
| COc1ccc(Cl)cc1C(=O)NCC1(N(C)C)CCCCC1 | inactive: 19.1% |
| COc1cccc(C(=O)NCC2(N3CCCCC3)CCCCC2)c1 | inactive: 9.76% |
| COc1ccc(C(=O)NCC2(N(C)C)CCCCC2)cc1Cl | inactive: 35.2% |
| O=C(NCC1(N2CCCCC2)CCCCC1)c1cccc(Cl)c1 | inactive: 1.86% |
| COc1cccc(C(=O)NCC2(N3CCOCC3)CCCCC2)c1 | inactive: 41.3% |
| O=C(OC1CN2CCC1CC2)C(CO)(c1ccccc1)c1ccccc1 (centres undefined) | inactive: 11.6% |
| CC(C)COc1ccc(C(=O)NCC2(N(C)C)CCCCC2)cc1 | inactive: 34.7% |
| COc1ccc(Br)c(C(=O)NCC2(N3CCCCC3)CCCCC2)c1 | inactive: 21% |
| COc1cc(C(=O)NCC2(N(C)C)CCCCC2)cc(OC)c1OC | inactive: 53.1% |
| Cc1cccc(C(=O)NCC2(N(C)C)CCCCC2)c1 | inactive: 30.9% |
| O=C(OCCN1CCCC1)C(O)(c1ccccc1)c1ccccc1 | inactive: 20.1% |
| CC(C)Oc1ccc(C(=O)NCC2(N(C)C)CCCCC2)cc1 | inactive: 7.15% and inactive: 10.9% |
| CN(C)c1cccc(C(=O)NCC2(N(C)C)CCCCC2)c1 | inactive: 4.63% |
| O=C(NCC1(N2CCCCC2)CCCCC1)c1cc([N+](=O)[O-])ccc1Cl | inactive: 12.2% |
| CN1[C@@H]2CC[C@H]1CC(OC(=O)C(O)(c1ccccc1)c1ccccc1)C2 (some centres undefined) | inactive: 34.1% |

| SMILES | activity change, negative = inhibition |
| --- | --- |
| COc1cc(SC)ccc1C(=O)NCC1(N(C)C)CCCCC1 | inactive: 20.4% |
| CN(C)C1(CNC(=O)c2cccc(Cl)c2)CCCCC1 | inactive: 59.5% |
| CCN(CC)CC(C)C(C)OC(=O)C(O)(c1ccccc1)c1ccccc1 (centres undefined) | inactive: 12.8% |
| CC(C)N1C(=O)CC2(CCN(CCOC(=O)C(O)(c3ccccc3)c3ccccc3)CC2)C1=O | inactive: 32.4% |
| Cc1ccc(C(=O)NCC2(N3CCCCC3)CCCCC2)cc1 | inactive: 9.76% |
| CN(C)C1(CNC(=O)c2ccccc2F)CCCCC1 | inactive: 45.6% |
| CN(C)c1ccc(C(=O)NCC2(N(C)C)CCCCC2)cc1 | inactive: 1.66% |
| Cc1ccccc1C(=O)NCC1(N2CCCCC2)CCCCC1 | inactive: 27.2% |
| CN(C)C1(CNC(=O)c2ccccc2[N+](=O)[O-])CCCCC1 | inactive: 50.8% |
| CCCCOc1ccccc1C(=O)NCC1(N(C)C)CCCCC1 | inactive: 30.2% |
| O=C(NCC1(N2CCCCC2)CCCCC1)c1cc(F)c(F)cc1Cl | inactive: 10.2% |
| C=CCN1CCN(CCOC(=O)C(O)(c2ccccc2)c2ccccc2)CC1 | inactive: 32.2% |
| CCOc1cccc(C(=O)NCC2(N(C)C)CCCCC2)c1 | inactive: 37.9% |
| COc1ccc(C(=O)NCC2(N(C)C)CCCCC2)cc1 | inactive: 17.8% |
| O=C(NCC1(N2CCCCC2)CCCCC1)c1cccc(Br)c1 | inactive: -25.1% |
| CCN1CCCC(OC(=O)C2(O)c3ccccc3C=Cc3ccccc32)C1 (centres undefined) | inactive: 5.99% |
| Cc1cc(C(=O)NCC2(N3CCCCC3)CCCCC2)ccc1[N+](=O)[O-] | inactive: -4.73% |
